Test system: amphetamine-induced hyper-locomotion
Conditions: rats pre-treated with d-amphetamine 1.5 mg/kg i.p.; test compound s.c.; last 45 minutes of one hour; range covers 95% of fits

## COc1cccc(C2(O)CCN(C)CC2)c1OC [Example 1 and 2 in US 4,415,736]
  ED50 reduction of amphetamine-induced hyper-locomotion: Inactive

Reference: EP2204363A1, “New disubstituted phenylpiperidines/piperazines as modulators of dopamine neurotransmission” (NSAB, Filial af NeuroSearch Sweden AB, Sverige, priority 2004, dated 2005)
